# Reference: patent US4298594A, “Xenobiotic delivery vehicles, method of forming them and method of using them” (Arthur D. Little, Inc., priority 1980, dated 1981)
# Test: in vitro stability of microreservoirs and liposomes (optical density ratio A400/A600, thin layer chromatograms)
# Conditions: after sonication and centrifugation
substance,measurement,value
phosphatidyl choline,degradation by thin layer chromatograms of the centrifugates,no evidence of degradation
